Among the data in ChEMBL document CHEMBL4842321, “Novel benzenesulfonamides aryl and arylsulfone conjugates adopting tail/dual tail approaches: Synthesis, carbonic anhydrase inhibitory activity and molecular modeling studies” (Eur J Med Chem, 2021) are Selectivity Index values, retold here.

This experiment is filed under the species Homo sapiens. Kind of experiment: Selectivity index. ratio of IC50 for Antiproliferation activity against human MCF-10A to IC50 for Antiproliferation activity against human MCF7.

Take `O=c1[nH]cc(F)c(=O)[nH]1` [FLUOROURACIL]: the Selectivity Index stood at 1.38.
